Chains of the proteins cited; added tags and fusions are not shown. Lines headed by an entry give the natural chain unless they say otherwise; changes in a name come on top.
UniProt Q01727: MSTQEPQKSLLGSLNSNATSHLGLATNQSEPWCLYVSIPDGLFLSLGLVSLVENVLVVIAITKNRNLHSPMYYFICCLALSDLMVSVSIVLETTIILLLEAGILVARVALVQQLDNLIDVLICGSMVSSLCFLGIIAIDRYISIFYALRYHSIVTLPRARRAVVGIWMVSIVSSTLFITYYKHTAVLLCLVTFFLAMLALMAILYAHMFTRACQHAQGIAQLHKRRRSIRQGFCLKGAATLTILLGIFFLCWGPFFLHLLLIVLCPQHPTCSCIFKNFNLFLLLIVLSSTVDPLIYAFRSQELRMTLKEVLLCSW

In US9493537:

Target: melanocortin-1 (MC1) receptor on B16/F1 murine melanoma cells (mouse (B16/F1 murine melanoma cells)) (UniProt Q01727)
Test: cell-based or functional assay

tumor uptake in B16/F1 melanoma-bearing C57 mice at 2 h with co-injection of 10 µg of non-radiolabeled NDP-MSH, as percent of the uptake without co-injection: 4.2%
Substance: 111In-DOTA-Nle-CycMSHhex (peptide)
